Cyclic peptide permeability, from CycPeptMPDB

Data: CycPeptMPDB; original report Townsend et al. 2020, doi:10.26434/chemrxiv.13335941.v1.

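The data file gives no further conditions (lipid, pH, time, direction or concentration), and values from different papers need not be comparable. The list need not hold all peptides of the study. Entries at the database's floor value (log10 P of -10) are not listed.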

PAMPA measures passive passage through an artificial lipid membrane. Permeability is given as log10 of P in cm/s; higher (less negative) is more permeable.

compound,PAMPA (log10 cm/s)
CC(C)C[C@@H]1C(=O)N[C@@H](Cc2ccccc2)C(=O)N[C@@H](C)C(=O)N[C@H](CC(C)C)C(=O)N[C@@H](Cc2ccccc2)CC(=O)N2CCC[C@@H]2C(=O)N1C,-6.29
CC(C)C[C@@H]1C(=O)N(C)[C@@H](CC(C)C)C(=O)N2CCC[C@H]2C(=O)N[C@H](CC(C)C)C(=O)N[C@@H](Cc2ccccc2)C(=O)N2CCC[C@@H]2C(=O)N(C)[C@@H](C)C(=O)N1C,-5.33
CC(C)C[C@@H]1NC(=O)[C@@H]2CCCN2C(=O)[C@H](CC(C)C)NC(=O)[C@@H](CC(C)C)NC(=O)C[C@H](Cc2ccccc2)NC(=O)[C@H](Cc2ccccc2)NC1=O,-5.78
CC(C)C[C@@H]1C(=O)N[C@@H](Cc2ccccc2)CC(=O)N2CCC[C@H]2C(=O)N(C)[C@H](CC(C)C)C(=O)N[C@@H](Cc2ccccc2)C(=O)N2CCC[C@@H]2C(=O)N[C@@H](C)C(=O)N1C,-5.37
CC(C)C[C@@H]1NC(=O)[C@@H](CC(C)C)NC(=O)[C@H](C)NC(=O)[C@H]2CCCN2C(=O)[C@H](Cc2ccccc2)NC(=O)CN(Cc2ccccc2)C(=O)[C@H]2CCCN2C1=O,-6.81
CC(C)C[C@H]1NC(=O)[C@@H](C)N(C)C(=O)[C@H]2CCCN2C(=O)[C@H](Cc2ccccc2)NC(=O)[C@H](CC(C)C)N(C)C(=O)[C@H]2CCCN2C(=O)[C@H](CC(C)C)N(C)C1=O,-5.83
CC(C)C[C@@H]1NC(=O)[C@@H](C)N(C)C(=O)[C@H]2CCCN2C(=O)[C@H](Cc2ccccc2)NC(=O)[C@H](CC(C)C)N(C)C(=O)[C@@H]2CCCN2C(=O)C[C@H](Cc2ccccc2)NC1=O,-5.58
CC(C)C[C@@H]1C(=O)N2CCC[C@H]2C(=O)N[C@H](CC(C)C)C(=O)N[C@@H](Cc2ccccc2)C(=O)N[C@H](C)C(=O)N(C)[C@@H](CC(C)C)C(=O)N1C,-5.14
CC(C)C[C@@H]1NC(=O)[C@H]2CCCN2C(=O)[C@H](CC(C)C)NC(=O)[C@@H](CC(C)C)N(C)C(=O)C[C@H](Cc2ccccc2)NC(=O)[C@H](Cc2ccccc2)NC1=O,-5.26
CC(C)C[C@@H]1C(=O)N2CCC[C@@H]2C(=O)N(C)[C@@H](CC(C)C)C(=O)N[C@@H](Cc2ccccc2)C(=O)N2CCC[C@@H]2C(=O)N[C@@H](C)C(=O)N[C@H](CC(C)C)C(=O)N1C,-5.75
CC(C)C[C@@H]1C(=O)N[C@@H](Cc2ccccc2)C(=O)N2CCC[C@@H]2C(=O)N[C@@H](C)C(=O)N[C@H](CC(C)C)C(=O)N(C)[C@H](CC(C)C)C(=O)N2CCC[C@@H]2C(=O)N1C,-6.18
CC(C)C[C@@H]1NC(=O)[C@H](C)NC(=O)[C@H]2CCCN2C(=O)[C@H](Cc2ccccc2)NC(=O)[C@H](CC(C)C)NC(=O)[C@@H]2CCCN2C(=O)C[C@H](Cc2ccccc2)NC1=O,-5.94
CC(C)C[C@@H]1C(=O)N(C)[C@@H](CC(C)C)C(=O)N2CCC[C@H]2C(=O)N(C)[C@@H](CC(C)C)C(=O)N[C@@H](Cc2ccccc2)C(=O)N[C@@H](Cc2ccccc2)CC(=O)N1C,-5.19
CC(C)C[C@@H]1C(=O)N2CCC[C@H]2C(=O)N(C)[C@H](CC(C)C)C(=O)N[C@@H](Cc2ccccc2)C(=O)N2CCC[C@H]2C(=O)N[C@H](C)C(=O)N(C)[C@@H](CC(C)C)C(=O)N1C,-5.68

Excerpt, the opening 2 entries:

compound	PAMPA (log10 cm/s)
CC(C)C[C@@H]1C(=O)N[C@@H](Cc2ccccc2)C(=O)N[C@@H](C)C(=O)N[C@H](CC(C)C)C(=O)N[C@@H](Cc2ccccc2)CC(=O)N2CCC[C@@H]2C(=O)N1C	-6.29
CC(C)C[C@@H]1C(=O)N(C)[C@@H](CC(C)C)C(=O)N2CCC[C@H]2C(=O)N[C@H](CC(C)C)C(=O)N[C@@H](Cc2ccccc2)C(=O)N2CCC[C@@H]2C(=O)N(C)[C@@H](C)C(=O)N1C	-5.33